Data on one substance can be found in PMC5238559, “Biomimetic synthesis and HPLC–ECD analysis of the isomers of dracocephins A and B” (Beilstein Journal of Organic Chemistry, 2016).

The format of data set [1] is in vitro ADME. To be noted: pH 7.4, 37 °C, 4 h; for PAMPA-BBB permeability classification: class in words. On the procedure:
Physicochemical characterization of dracocephins A and B was also carried out. The lipophilicity of neutral species of naringenin and dracocephins A and B are 3.39, 2.52 and 2.39, respectively. Similarly to this lipophilicity trend, the TPSA value of (±)-naringenin is lower than dracocephins A and B, however, there is no difference between the calculated TPSA values of 2a–d and 3a–d. […] Among these proton-dissociation constants, the lowest acidic pKa values are predominant in physiological environment, which is also indicated by the difference of log D values between pH 7.4 and pH 6.5. The blood–brain barrier (BBB) specific penetration of dracocephins isomers has also been studied by the PAMPA (parallel artificial membrane permeability assay)-BBB model system, which indicates passive diffusion of test compounds across the brain capillary endothelium. […]
(§1) n-octanol. From the n-octanol containing titrations the poKa (the apparent ionization constant in the presence of n-octanol) and then logP values were estimated and refined by a weighted non-linear least-squares procedure, where the aqueous pKa values (taken from aqueous titrations) were used as unrefined contributions. For each compound a minimum of three to six titrations at different phase volume ratios were measured, and the respective average logP values were calculated. logD values were also calculated by logP and pKa values using the Henderson– Hasselbalch equation. The relevant relationships between logP, pKa, and poKa, for mono- and multiprotic substances, including cases of ion-pair formation, have been described in detail earlier.
Antioxidant activity: The radical scavenging capacity of dracocephins A and B were tested in the microplate format of the 2,2-diphenyl-1-picrylhydrazyl (DPPH) assay. […]
for 4 h. After the incubation, PAMPA sandwich plates are separated and compound concentrations in donor and acceptor solutions are determined by HPLC-DAD. […]
Cytotoxicity on SH-SY5Y cells: Cytotoxicity on SH-SY5Y cells was measured in an analogous manner as described in the literature. […]

A short description of data set [2]: pKa determination by aqueous titrations. To be noted: phenolic hydroxy group. Type of data set: physicochemical. On the procedure: as §1, with “earlier. […]” for “earlier.”
Data set [3] can be described thus: logP determination by titrations in the presence of n-octanol; logD calculated from logP and pKa. Type of data set: physicochemical. On the procedure: as §1, with “earlier. […]” for “earlier.”

Like-named read-outs stand apart in the source and are kept apart here.

For naringenin [(±)-1, reference compound], in data set [1], the “PAMPA-BBB Pe” value is 8.8 ± 0.6 10^–6 cm/s and the PAMPA-BBB permeability classification entry was “medium”. Besides, the PAMPA-BBB permeability classification result in data set [1] (listed as naringenin) was “medium penetration characteristic”. Further, the “pKa (first, lowest acidic)” value in data set [2] (first value in cell) came to 6.91 ± 0.06. In addition, the “pKa (second)” value in data set [2] (second value in cell) is recorded as 9.20 ± 0.08. In addition, the “pKa (third)” value in data set [2] (third value in cell) came out at 11.85 ± 0.06. Besides, in data set [3] (n-octanol/water, lipophilicity of neutral species), the “log P” value is reported as 3.39 ± 0.01. Besides, in data set [3] (pH 6.5, calculated from logP and pKa by Henderson–Hasselbalch equation), the “log D6.5” value was 3.25. For the same substance, the “log D7.4” value in data set [3] (pH 7.4, calculated from logP and pKa by Henderson–Hasselbalch equation) is on record as 2.80.
